Consider one substance from patent publication US20160002291A1, “Active Agent Prodrugs with Heterocyclic Linkers” (Signature Therapeutics, Inc., priority 2011, published 2016).

A short description of series [1]: Pharmacokinetics following PO administration of hydrocodone prodrugs to rats (Example 45). To be noted: hydrocodone in rat plasma, dose per compound as in Table 10 (24-30 μmol/kg).
Series [2] in a line: Pharmacokinetics of hydrocodone prodrugs PO to dogs and effect of co-administered Compound 109 (Example 47). To be noted: dogs PO.
Setting [3] is: 1 dose unit: KC-40 0.4 mg/kg + Compound 109 0.08 mg/kg ([…]).
Where [4] appears, read: 4 dose units: KC-40 […] + Compound 109 0.32 mg/kg (0.56 μmol/kg).
Setting [5] is: 10 dose units: KC-40 4 mg/kg (4.9 μmol/kg) + Compound 109 0.8 mg/kg ([…]).
The mark [6] stands for this setting: KC-40 0.1 mg/kg (0.1 μmol/kg), no Compound 109.
[7] abbreviates: KC-40 0.4 mg/kg (0.5 μmol/kg), no Compound 109.
Setting [8] is: KC-40 […] (2.0 μmol/kg), no Compound 109.

Regarding “N-(hydrocodone-6-enol-carbonyl)-(2-methylamino)piperidine-4-carboxylate]-L-arginine-glycine-acetate [Compound KC-40]”, the “HC Cmax ± sd” value is listed as 5.86 ± 1.8 ng/mL in series [1]; 12.9 ± 4.8^ ng/mL in series [2] (setting [3]); 23.3 ± 12 ng/mL in series [2] (setting [4]); 13.2 ± 7.6 ng/mL in series [2] (setting [5]); 4.12 ± 1.2 ng/mL in series [2] (setting [6]); 13.2 ± 2.7 ng/mL in series [2] (setting [7]). Moreover, the “HC Cmax ± sd” value in series [2] (setting [8]) was determined as 66.5 ± 8.1 ng/mL. The “Tmax ± sd” value amounted to 25 ± 5.76 min in series [1]; 56.3 ± 7.8 min in series [2] (setting [3]); 150 ± 34.8 min in series [2] (setting [4]); 300 ± 156 min in series [2] (setting [5]); 25 ± 5.76 min in series [2] (setting [6]); 37.5 ± 8.4 min in series [2] (setting [7]). The “Tmax ± sd” value in series [2] (setting [8]) came to 27.5 ± 5.04 min.
